Assay results published in ChEMBL document CHEMBL1141151, “High-affinity epidermal growth factor receptor (EGFR) irreversible inhibitors with diminished chemical reactivities as positron emission tomography (PET)-imaging agent candidates of EGFR overexpressing tumors” (J Med Chem, 2005).

By UniProt entry, the sequences of proteins in these tests, tags left out.
UniProt P04626, whole entry: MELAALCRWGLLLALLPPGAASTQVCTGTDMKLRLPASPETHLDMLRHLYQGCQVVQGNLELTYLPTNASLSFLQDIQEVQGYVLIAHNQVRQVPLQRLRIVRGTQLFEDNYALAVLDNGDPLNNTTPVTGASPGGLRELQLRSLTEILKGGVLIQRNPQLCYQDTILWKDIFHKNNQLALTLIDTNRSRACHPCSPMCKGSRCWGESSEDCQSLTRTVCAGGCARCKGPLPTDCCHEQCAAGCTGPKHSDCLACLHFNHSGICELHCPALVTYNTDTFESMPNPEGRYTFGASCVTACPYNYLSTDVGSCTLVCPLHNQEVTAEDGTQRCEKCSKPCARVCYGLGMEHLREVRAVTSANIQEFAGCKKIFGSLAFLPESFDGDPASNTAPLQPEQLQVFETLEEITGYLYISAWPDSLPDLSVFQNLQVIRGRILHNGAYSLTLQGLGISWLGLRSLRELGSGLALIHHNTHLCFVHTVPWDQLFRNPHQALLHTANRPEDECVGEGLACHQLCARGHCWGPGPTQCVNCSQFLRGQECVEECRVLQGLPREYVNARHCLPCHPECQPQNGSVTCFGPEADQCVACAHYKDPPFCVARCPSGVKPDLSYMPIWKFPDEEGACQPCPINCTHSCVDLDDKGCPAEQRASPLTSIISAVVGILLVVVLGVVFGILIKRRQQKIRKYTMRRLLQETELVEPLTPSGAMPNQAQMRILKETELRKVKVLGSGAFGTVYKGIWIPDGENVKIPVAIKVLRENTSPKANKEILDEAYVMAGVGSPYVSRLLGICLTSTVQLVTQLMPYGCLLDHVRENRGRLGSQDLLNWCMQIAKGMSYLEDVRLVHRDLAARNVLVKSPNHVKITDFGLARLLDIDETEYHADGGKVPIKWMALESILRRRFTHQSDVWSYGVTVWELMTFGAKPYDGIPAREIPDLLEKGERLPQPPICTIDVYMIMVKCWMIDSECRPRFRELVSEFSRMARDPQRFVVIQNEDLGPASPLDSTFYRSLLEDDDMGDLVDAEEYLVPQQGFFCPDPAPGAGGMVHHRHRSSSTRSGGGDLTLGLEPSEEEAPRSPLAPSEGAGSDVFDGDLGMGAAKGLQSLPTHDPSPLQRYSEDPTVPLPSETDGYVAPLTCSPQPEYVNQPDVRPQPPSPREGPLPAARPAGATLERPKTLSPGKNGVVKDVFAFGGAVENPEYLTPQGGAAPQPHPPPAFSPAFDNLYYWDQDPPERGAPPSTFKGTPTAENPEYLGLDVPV

Molecular target: Receptor tyrosine-protein kinase erbB-2 (Homo sapiens, UniProt P04626)
Assay: Inhibition of HER2 kinase in intact CSH12 cells; Range = 25-50 nM
Type: cell-based

IC50: 50 nM
Compound: CN(C)C/C=C/C(=O)Nc1ccc2ncnc(Nc3cc(Cl)c(Cl)cc3F)c2c1
